This is a selection; strong and weak results do not stand in their true shares. Records with an inconclusive call do not appear. Calls of active or inactive are those of the source. The call rests on the fitted dose curve; in most records, active means well fitted cell-killing curve with a large enough effect in the repeat runs; inconclusive means weak or mixed curves, or effect the other way; inactive means flat fitted curve, though single readings scatter.
experiment: qHTS assay to identify small molecule antagonists of the estrogen receptor alpha (ER-alpha) signaling pathway using the BG1 cell line in the presence of 0.1 nM 17-beta-estradiol - cell viability counter screen (AID 1259241); conditions: VM7Luc4E2 (BG1) viability, CellTiter-Fluor protease, 22 h, 0.1 nM estradiol agonist added; series mostly up to 92.4 µM; activity change, negative = cytotoxicity: at the top concentration; further: nearly all actives have a fitted effect of over 40% in size
Description: National Center for Advancing Translational Sciences [NCATS]
NIH Chemical Genomics Center [NCGC]
U.S. Environmental Protection Agency [EPA]
National Institutes of Environmental Health Sciences [NIEHS]
National Toxicology Program [NTP]
U.S. Food and Drug Administration [FDA]
Estrogen receptor (ER), a member of the nuclear hormone receptor plays an important role in development, metabolic homeostasis and reproduction. Two subtypes of ER, ER-alpha and ER-beta, have similar expression patterns with some uniqueness in both types. Endocrine disrupting chemicals (EDCs) and their interactions with steroid hormone receptors like ER causes disruption of normal endocrine function. Therefore, it is important to understand the effect of environmental chemicals in ER signaling pathway. For identifying ER antagonists, VM7Luc4E2 cell line was used to screen against Tox21 compound libraries.
VM7Luc4E2 cell line (provided by Denison MS, University of California) endogenously express full-length ER-alpha and is stably transfected with a plasmid containing four estrogen responsive elements (ERE) upstream of a luciferase reporter gene. The current screening for identification of ER-alpha inhibitors against Tox21 compound libraries used lower concentration (0.1 nM) of 17beta-Estradiol as a stimulator. The cytotoxicity of the Tox21 compound libraries against VM7Luc4E2 cell line was tested by measuring live-cell protease activity using CellTiter-Fluor assay in the same wells.
Tox21 Assay Protocol Summary:
VM7Luc4E2 cells were cultured in phenol red free assay medium containing 10% charcoal stripped FBS for 5 days prior to the assay. The cells were dispensed at 4,000 cells/well in 4 uL of assay medium into white wall/solid-bottom 1536-well plates (Corning Life Sciences, Corning, NY) using a Multidrop Combi (ThermoFisher Scientific, Waltham, MA) dispenser. After the assay plates were incubated at 37C and 5% CO2 for 24 hr, 23 nL of compounds dissolved in DMSO, positive controls or DMSO only was transferred to the assay plates by a Pintool station (Kalypsys, San Diego, CA). The transfer of compounds was followed by the addition of 1 uL of 0.1 nM (final concentration) agonist (17beta-Estradiol)/assay medium using a Flying Reagent Dispenser (FRD, Aurora Discovery, San Diego, CA). The plates were incubated at 37C and 5% CO2 for 22 hr. For cytotoxicity assay, 1 uL of CellTiter-Fluor reagent (Promega Corporation, Madison, WI) was added to each well using the FRD and after 30 min incubation at 37C and 5% CO2, The fluorescence intensity was measured using ViewLux plate reader (PerkinElmer, Shelton, CT).
On the % scale 0 is the no-effect control and ±100 the full control effect; potency means the concentration at half of the fitted maximal effect.

Structure (SMILES)	Potency	activity change, negative = cytotoxicity
OCCSCCO	inactive	–
CCN(CC)CCCl	–	inactive: -2.89%
N=C(N)N[N+](=O)[O-]	–	inactive: 0%
Cc1ccc([N+](=O)[O-])cc1[N+](=O)[O-]	inactive	–
CCOP(=O)(CC)OCC	–	inactive: 11%
Cc1c([N+](=O)[O-])cccc1[N+](=O)[O-]	inactive	–
CN(C)CCCl	–	inactive: 4.71%
COc1ccc([N+](=O)[O-])cc1[N+](=O)[O-]	–	inactive: 0.994%
[NH4+].[O-][Cl+3]([O-])([O-])[O-]	inactive	–
CC(C)N(CCO)C(C)C	–	inactive: -8.58%
Cc1cccc([N+](=O)[O-])c1[N+](=O)[O-]	–	inactive: -0.452% [at 42.5 µM]
N#CBr	–	inactive: -2.47%
O=[N+]([O-])[O-].[NH4+]	inactive	–
O=[N+]([O-])OCC(CO[N+](=O)[O-])(CO[N+](=O)[O-])CO[N+](=O)[O-]	–	inactive: 2.9%
COP(C)(=O)OC	inactive	–
CP(=O)(O)OCCC[Si](O)(O)O	–	inactive: 0%
C/C1=C2N=C(/C=C3N=C(/C(C)=C4\[N-][C@@](C)([C@@H]5N=C1[C@](C)(CCC(=O)NC[C@@H](C)OP(=O)([O-])O[C@H]1[C@@H](O)[C@@H](n6cnc7cc(C)c(C)cc76)O[C@@H]1CO)[C@H]5CC(N)=O)[C@@](C)(CC(N)=O)[C@@H]4CCC(N)=O)[C@@](C)(CC(N)=O)[C@@H]\3CCC(N)=O)C(C)(C)[C@@H]/2CCC(N)=O.[C-]#N.[Co+3]	active: 11.9 µM	–
CC(C)OP(C)(=O)OC(C)C	inactive	–
CCOP(=O)(CC)Oc1ccc([N+](=O)[O-])cc1 (centres undefined)	–	inactive: 0.522% [at 42.5 µM]
